The series deals with CYP1A2 (Homo sapiens, UniProt P05177). Description: Fluorometric CYP1A2 activity assay in human hepatic microsomes. Particulars: human liver microsomes, 6 µM, p < 0.001. In general terms: Liver microsomes are vesicles of endoplasmic reticulum, rich in cytochrome P450 enzymes.

The chains behind the UniProt entries cited, without tags or fusion partners.
UniProt P05177, whole entry: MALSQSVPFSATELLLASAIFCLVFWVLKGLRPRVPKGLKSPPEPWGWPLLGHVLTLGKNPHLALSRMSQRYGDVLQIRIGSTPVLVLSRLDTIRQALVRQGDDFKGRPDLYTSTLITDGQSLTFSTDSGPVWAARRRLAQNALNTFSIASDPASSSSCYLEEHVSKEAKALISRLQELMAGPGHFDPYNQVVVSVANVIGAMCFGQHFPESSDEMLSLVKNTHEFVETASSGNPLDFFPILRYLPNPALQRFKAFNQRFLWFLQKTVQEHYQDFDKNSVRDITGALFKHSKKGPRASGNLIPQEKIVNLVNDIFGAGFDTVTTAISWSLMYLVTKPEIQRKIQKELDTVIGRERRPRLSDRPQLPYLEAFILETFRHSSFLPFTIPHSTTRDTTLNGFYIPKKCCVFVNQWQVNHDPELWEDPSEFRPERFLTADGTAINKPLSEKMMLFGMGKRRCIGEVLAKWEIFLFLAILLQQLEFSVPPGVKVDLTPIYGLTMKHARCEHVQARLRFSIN

On to `O=c1cc(-c2ccccc2)oc2c1ccc1ccccc12` [α-naphthoflavone, reference compound], for which the “Inhibition of CYP1A2 activity by reference inhibitor” value is reported as “significantly suppressed”.

Values taken from paper PMC11258351, “PK/PD investigation of antiviral host matriptase/TMPRSS2 inhibitors in cell models” (Scientific Reports, 2024).
